From ChEMBL document CHEMBL1122944, “The histamine H2 receptor agonist impromidine: synthesis and structure-activity considerations” (J Med Chem, 1985)

Amino acid sequences for entries named in this document (tags omitted).
UniProt P47747, whole entry, looked up: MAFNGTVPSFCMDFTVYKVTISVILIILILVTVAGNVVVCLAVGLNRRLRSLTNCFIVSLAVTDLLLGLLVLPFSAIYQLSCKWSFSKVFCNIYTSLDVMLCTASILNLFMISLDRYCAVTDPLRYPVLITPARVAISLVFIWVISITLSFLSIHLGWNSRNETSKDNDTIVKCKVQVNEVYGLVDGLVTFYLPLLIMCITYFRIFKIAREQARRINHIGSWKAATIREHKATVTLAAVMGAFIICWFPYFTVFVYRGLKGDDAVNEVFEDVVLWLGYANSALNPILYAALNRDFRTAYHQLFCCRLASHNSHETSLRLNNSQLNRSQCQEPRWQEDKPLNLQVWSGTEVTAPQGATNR

Each compound was assayed against Histamine H2 receptor (Cavia porcellus, UniProt P47747) (assay: Antagonistic activity against H2 receptor in guinea pig.).
Assay type: functional
For `Cc1[nH]cnc1CSCC/N=C(\N)NCCCc1nccs1.O=[N+]([O-])c1cc([N+](=O)[O-])c(O)c([N+](=O)[O-])c1`, the pA2 was 6.5.
`C/N=C(\N)NCCSCc1nccs1.O=[N+]([O-])c1cc([N+](=O)[O-])c(O)c([N+](=O)[O-])c1` gave a pA2 of 4.96.
`Cc1[nH]cnc1CSCC/N=C(\N)NCCSCc1nccs1.O=[N+]([O-])c1cc([N+](=O)[O-])c(O)c([N+](=O)[O-])c1` showed a pA2 of 6.11.
